Read-outs that look alike come from different tables or passages of the source.
Experiments:
[1] = extraction ratio, compound at 1 uM, SD rat liver microsomes 0.5 mg/mL
[2] = extraction ratio, compound at 1 uM, beagle dog liver microsomes 0.5 mg/mL
[3] = extraction ratio, compound at 1 uM, mouse liver microsomes 0.5 mg/mL
[4] = extraction ratio, compound at 1 uM, human liver microsomes 0.5 mg/mL

Compound | Liver Microsomal Stability (ER) SD rat [1] | Liver Microsomal Stability (ER) Beagle dog [2] | Liver Microsomal Stability (ER) Mouse [3] | Liver Microsomal Stability (ER) Human [4] | Liver Microsomal Stability (ER) SD rat ([1]; tested form: Na salt) | Liver Microsomal Stability (ER) Beagle dog ([2]; tested form: Na salt) | Liver Microsomal Stability (ER) Mouse ([3]; tested form: Na salt) | Liver Microsomal Stability (ER) Human ([4]; tested form: Na salt)
CC1(C)[C@@H]2[C@@H](C(=O)N[C@@H](C#N)C[C@@H]3CCCNC3=O)N(C(=O)[C@@H](NC(=O)C(F)F)C3CC3)C[C@@H]21 | 0.01 | 0.05 | 0.07 | 0.09 | – | – | – | –
CC(C)C[C@@H](NC(=O)c1cc2ccccc2[nH]1)C(=O)N[C@@H](C[C@@H]1CCNC1=O)C(O)S(=O)(=O)O (some centres unmarked) | – | – | – | – | 0.16 | −0.04 | 0.01 | 0.02

— US11753373B2, “Protease inhibitors as antivirals” (priority 2021, dated 2023)
